{"source": "patent US9428447B2", "about": "“Bis-(aryl/heteroaryl)-methylene compounds, pharmaceutical compositions containing same and their use for treating cancer” (The Royal Institution For The Advancement of …, priority 2011, dated 2016)", "type_in_all_cases": "cell-based, human", "key": {"[1]": {"test_system": "total intracellular HDAC activity", "assay": "HDACi activity with fluorogenic substrate in live SCC25 cells", "conditions": "increasing concentration, FIG. 2a, b", "description": "(§1) Compounds were also tested along with 1,25D for HDACi activity using a fluorogenic substrate in vivo in SCC25 and SCC4 cells (FIGS. 2a, b). This assay measures the inhibition of total intracellular HDAC activity and determines the capacity of compounds to inhibit HDACs in the form of their naturally occurring complexes."}, "[2]": {"test_system": "total intracellular HDAC activity", "assay": "HDACi activity with fluorogenic substrate in live SCC4 cells", "conditions": "increasing concentration, FIG. 2a, b", "description": "as §1"}, "[3]": {"test_system": "SCC4 cells", "assay": "MTS cell proliferation assay, SCC4", "conditions": "vitamin D resistant SCC4 cells; FIGS. 7c, 8 and 9", "from_the_text": "Dose-dependent effects of compounds on cell cycle progression was monitored using a CellTiter 96 Aqueous Non-Radioactive Cell Proliferation Assay Kit (Promega). The assay composed of solutions of a novel tetrazolium compound (MTS) and an electron coupling reagent (phenazine methosulfate; PMS). MTS is reduced by metabolically active cells into a soluble formazan product that absorbs at 490 nm. The quantity of formazan product absorbing at 490 nm is directly proportional to the number of living cells."}}}
{"compound": "C=C1/C(=C\\C=C2/CCC[C@]3(C)[C@@H]([C@H](C)CCCC(C)(C)O)CC[C@@H]23)C[C@@H](O)C[C@@H]1O", "note": "[1,25D, 1,25-dihydroxyvitamin D, reference compound]", "values": [{"measurement": "inhibition of total intracellular HDAC activity (substrate deacetylation)", "setting": "[1]", "value": "had no effect on substrate deacetylation"}, {"measurement": "inhibition of total intracellular HDAC activity (substrate deacetylation)", "setting": "[2]", "value": "had no effect on substrate deacetylation"}, {"measurement": "antiproliferative potency (MTS)", "setting": "[3]", "value": "ineffective"}]}
